Assay results as given in US11371022B2, “Blood-brain barrier endothelial cells derived from pluripotent stem cells for blood-brain barrier models” (PRESIDENT AND FELLOWS OF HARVARD COLLEGE, priority 2016, dated 2022).

System: ABCB1 or ABCC1
Assay: Rhodamine 123 apparent permeability across BBB chip with efflux pump blockage by metabolic inhibitors
Type: in vitro ADME, human
Conditions: FIG. 9A

- Papp of Rhodamine 123 on blockage of ABCB1 or ABCC1 (hypoxia-stimulated BBB Chip, metabolic inhibitors): significantly increased
- change of Rhodamine 123 penetration on blockage of ABCB1 or ABCC1 (normoxia control BBB chip): did not show any change
Substance: rhodamine 123
